Measurements from publication PMC9457746, “Synthesis of Sulfonamides Incorporating Piperidinyl-Hydrazidoureido and Piperidinyl-Hydrazidothioureido Moieties and Their Carbonic Anhydrase I, II, IX and XII Inhibitory Activity” (Molecules, 2022).

Sequences of proteins named here, by UniProt entry; tags and fusion partners are left off. A change or cut given only in a name is not applied to a line headed by its entry.
UniProt P00915: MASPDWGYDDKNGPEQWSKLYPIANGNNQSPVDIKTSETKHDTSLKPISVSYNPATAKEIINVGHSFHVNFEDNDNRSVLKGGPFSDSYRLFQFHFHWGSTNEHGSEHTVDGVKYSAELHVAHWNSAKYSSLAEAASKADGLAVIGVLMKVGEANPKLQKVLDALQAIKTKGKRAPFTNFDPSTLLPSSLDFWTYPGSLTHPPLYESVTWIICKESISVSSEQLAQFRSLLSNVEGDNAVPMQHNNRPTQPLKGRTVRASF

Experiments:
[1] = molecular target: hCA II (Homo sapiens, UniProt P00918); test: stopped flow CO2 hydrase assay, hCA II inhibition; settings: read-out: Ki (nM) hCAII; Table 2, thioureas 6a-y; recombinant enzyme, 15 min preincubation, mean of at least three determinations
[2] = molecular target: hCA I (Homo sapiens, UniProt P00915); test: stopped flow CO2 hydrase assay, hCA I inhibition; settings: read-out: Ki (nM) hCAI; Table 2, thioureas 6a-y; recombinant enzyme, 15 min preincubation, mean of at least three determinations

Substance: 4-(4-(4-(4-(Trifluoromethyl)phenyl)piperazine-1-carbonyl)piperidine-1-carbonyl)benzenesulfonamide [Compound 6c]
- Ki [1]: 3.2 nM
- Ki [2]: 52 nM
